Results published in publication PMC4612324.

Biological target: Aβ 1-40 peptide (UniProt P05067)
Assay: ELISA; Aβ1-40 peptide coated on Maxisorp plates (0.1 µg/ml, bicarbonate buffer pH 9.6); antibodies serially diluted in PBS/1 % BSA, 1 h at room temperature; detected with biotinylated anti-mouse IgG and streptavidin poly-HRP; relative affinity

- EC50: 0.17 pM
Substance: 3D6 (murine parent antibody of Bapineuzumab), recombinant with mouse IgG2a constant region (antibody; other documents disagree on this pair)
